Measured values: patent publication EP1538202A2

Sequences of proteins named here, by UniProt entry; tags and fusion partners are left off. A change or cut given only in a name is not applied to a line headed by its entry. Residues count along the entry.
mannose-6-phosphate (M6P) receptor on human cells (Fabry patient skin fibroblasts, HUVECs) (human), P11717, UniProt P11717, 41-2491: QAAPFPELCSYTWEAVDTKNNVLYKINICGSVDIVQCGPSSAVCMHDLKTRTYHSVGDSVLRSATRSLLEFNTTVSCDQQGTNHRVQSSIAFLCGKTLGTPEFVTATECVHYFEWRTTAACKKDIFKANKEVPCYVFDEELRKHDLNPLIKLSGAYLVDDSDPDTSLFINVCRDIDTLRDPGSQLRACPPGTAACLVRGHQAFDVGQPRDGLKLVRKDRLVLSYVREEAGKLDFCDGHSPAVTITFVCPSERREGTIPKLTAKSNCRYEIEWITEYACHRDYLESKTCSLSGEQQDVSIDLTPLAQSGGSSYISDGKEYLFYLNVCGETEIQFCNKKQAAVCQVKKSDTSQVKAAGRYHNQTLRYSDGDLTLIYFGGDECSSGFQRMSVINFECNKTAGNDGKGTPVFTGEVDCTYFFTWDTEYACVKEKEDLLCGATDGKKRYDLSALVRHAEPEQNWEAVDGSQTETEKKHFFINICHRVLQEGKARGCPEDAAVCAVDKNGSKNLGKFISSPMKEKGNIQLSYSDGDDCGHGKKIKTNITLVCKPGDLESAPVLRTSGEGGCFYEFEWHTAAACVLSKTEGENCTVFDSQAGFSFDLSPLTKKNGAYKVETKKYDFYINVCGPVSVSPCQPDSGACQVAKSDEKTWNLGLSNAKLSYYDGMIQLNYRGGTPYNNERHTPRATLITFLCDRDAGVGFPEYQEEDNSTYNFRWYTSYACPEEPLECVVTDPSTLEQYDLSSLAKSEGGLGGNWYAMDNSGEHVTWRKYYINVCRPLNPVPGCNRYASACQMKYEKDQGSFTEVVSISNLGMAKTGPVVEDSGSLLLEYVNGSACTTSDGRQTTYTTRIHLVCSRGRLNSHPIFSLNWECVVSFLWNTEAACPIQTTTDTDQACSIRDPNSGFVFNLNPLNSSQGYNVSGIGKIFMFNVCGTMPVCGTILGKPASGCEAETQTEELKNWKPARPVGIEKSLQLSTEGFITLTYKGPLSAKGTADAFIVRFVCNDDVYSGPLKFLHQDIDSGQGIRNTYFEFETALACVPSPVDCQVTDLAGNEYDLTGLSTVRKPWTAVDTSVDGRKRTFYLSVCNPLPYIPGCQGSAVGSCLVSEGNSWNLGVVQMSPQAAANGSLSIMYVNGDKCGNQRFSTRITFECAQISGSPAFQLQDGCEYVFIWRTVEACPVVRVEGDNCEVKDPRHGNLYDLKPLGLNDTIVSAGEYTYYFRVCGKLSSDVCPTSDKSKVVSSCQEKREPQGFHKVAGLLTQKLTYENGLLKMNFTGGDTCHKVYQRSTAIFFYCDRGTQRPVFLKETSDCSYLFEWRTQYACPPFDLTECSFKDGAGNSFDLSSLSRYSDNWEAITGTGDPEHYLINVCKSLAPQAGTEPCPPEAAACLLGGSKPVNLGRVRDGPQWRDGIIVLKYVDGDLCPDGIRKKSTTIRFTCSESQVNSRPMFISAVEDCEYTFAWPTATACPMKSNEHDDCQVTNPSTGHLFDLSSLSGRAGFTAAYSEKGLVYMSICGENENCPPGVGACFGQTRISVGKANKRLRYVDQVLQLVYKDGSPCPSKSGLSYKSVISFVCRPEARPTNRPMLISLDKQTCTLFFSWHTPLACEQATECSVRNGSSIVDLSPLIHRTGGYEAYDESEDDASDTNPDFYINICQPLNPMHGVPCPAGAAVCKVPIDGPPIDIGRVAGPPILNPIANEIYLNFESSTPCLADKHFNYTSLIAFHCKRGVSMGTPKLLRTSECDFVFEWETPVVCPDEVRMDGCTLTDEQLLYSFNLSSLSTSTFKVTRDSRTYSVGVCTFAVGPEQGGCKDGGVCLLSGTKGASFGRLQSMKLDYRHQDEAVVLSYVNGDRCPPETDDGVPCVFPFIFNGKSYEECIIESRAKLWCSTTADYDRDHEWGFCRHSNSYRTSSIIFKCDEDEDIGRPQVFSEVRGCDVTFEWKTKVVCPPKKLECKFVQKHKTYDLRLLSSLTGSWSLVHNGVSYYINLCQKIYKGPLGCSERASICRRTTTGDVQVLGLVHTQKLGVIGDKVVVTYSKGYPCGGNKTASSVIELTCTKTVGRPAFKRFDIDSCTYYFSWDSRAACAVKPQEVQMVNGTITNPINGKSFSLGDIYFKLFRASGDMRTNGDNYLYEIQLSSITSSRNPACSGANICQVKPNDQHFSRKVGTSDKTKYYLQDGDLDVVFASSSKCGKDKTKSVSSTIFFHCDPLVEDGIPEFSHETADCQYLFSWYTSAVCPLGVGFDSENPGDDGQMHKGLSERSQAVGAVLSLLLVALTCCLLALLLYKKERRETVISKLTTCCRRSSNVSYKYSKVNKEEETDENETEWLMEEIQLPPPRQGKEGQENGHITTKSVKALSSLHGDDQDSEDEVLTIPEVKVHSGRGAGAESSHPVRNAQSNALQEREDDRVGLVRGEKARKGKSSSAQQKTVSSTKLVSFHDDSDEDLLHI

Molecular target: mannose-6-phosphate (M6P) receptor on human cells (Fabry patient skin fibroblasts, HUVECs) (human), P11717
Assay: cell-based or functional assay

B1: human α-galactosidase A (α-gal A) produced by stably transfected human fibroblasts, P06280 32-429 (enzyme)
chain: LDNGLARTPTMGWLHWERFMCNLDCQEEPDSCISEKLFMEMAELMVSEGWKDAGYEYLCIDDCWMAPQRDSEGRLQADPQRFPHGIRQLANYVHSKGLKLGIYADVGNKTCAGFPGSFGYYDIDAQTFADWGVDLLKFDGCYCDSLENLADGYKHMSLALNRTGRSIVYSCEWPLYMWPFQKPNYTEIRQYCNHWRNFADIDDSWKSIKSILDWTSFNQERIVDVAGPGGWNDPDMLVIGNFGLSWNQQVTQMALWAIMAAPLFMSNDLRHISPQAKALLQDKDVIAINQDPLGKQGYQLRQGDNFEVWERPLSGLAWAVAMINRQEIGGPRSYTIAVASLGKGVACNPACFITQLLPVKRKLGFYEWTSRLRSHINPTGTVLLQLENTMQMSLKDLL
modifications: here or on the partner: N-linked oligosaccharides carrying sialic acid (approximately 4-6 sialic acids/monomer) and one or more mannose-6-phosphate residues; positions not given
B1 was tested, and the intracellular α-gal A enzyme level in HUVECs after overnight culture with 7500 units of α-gal A, against control cells was 10 fold.
